By UniProt entry, the sequences of proteins in these tests, tags left out. Where a name states a change or a piece, a line headed by the entry shows the natural chain unless it says otherwise.
UniProt P45984: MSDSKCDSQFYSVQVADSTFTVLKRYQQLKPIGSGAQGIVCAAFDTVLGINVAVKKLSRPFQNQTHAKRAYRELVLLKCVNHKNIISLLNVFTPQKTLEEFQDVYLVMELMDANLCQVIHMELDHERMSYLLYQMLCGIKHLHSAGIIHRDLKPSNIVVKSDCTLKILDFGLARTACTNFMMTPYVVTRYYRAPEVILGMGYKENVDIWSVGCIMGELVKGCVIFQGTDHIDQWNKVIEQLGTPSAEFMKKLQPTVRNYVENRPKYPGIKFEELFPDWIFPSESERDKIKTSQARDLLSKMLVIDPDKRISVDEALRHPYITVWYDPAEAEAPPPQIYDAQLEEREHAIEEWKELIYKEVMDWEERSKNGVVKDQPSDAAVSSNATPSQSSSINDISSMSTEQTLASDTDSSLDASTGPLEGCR

According to patent publication US8569306B2, “JNK modulators” (Hoffmann-La Roche, Inc., priority 2009, dated 2013):

Target: Human JNK2α2 (Homo sapiens (Human), UniProt P45984)
Experiment: JNK assay in vitro, phosphorylation of GST-ATF2 (19-96) with [γ-33P] ATP
Format: biochemical
Settings: Human JNK2α2, 1 nM enzyme, 1 μM ATF2, 8 μM ATP; read-out: JNK2 − IC50
Experimental: JNK activity was measured by phosphorylation of GST-ATF2 (19-96) with [γ-^33P] ATP. The enzyme reaction was conducted at Km concentrations of ATP and the substrate at final volume of 40 μl in buffer containing 25 mM HEPES, pH 7.5, 2 mM dithiothreitol, 150 mM NaCl, 20 mM MgCl2, 0.001% Tween® 20, 0.1% BSA and 10% DMSO. Human JNK2α2 assay contains 1 nM enzyme, 1 μM ATF2, 8 μM ATP with 1 μCi [γ-^33P] ATP. Human JNK1α1 assay contains 2 nM enzyme, 1 μM ATF2, 6 μM ATP with 1 μCi [γ-^33P] ATP. Human JNK3 (Upstate Biotech #14-501M) assay contains 2 nM enzyme, 1 μM ATF2, 4 μM ATP with 1 μCi [γ-^33P] ATP. The enzyme assay was carried out in the presence or absence of several compound concentrations. JNK and compound were pre-incubated for 10 min, followed by initiation of the enzymatic reaction by adding ATP and the substrate. The reaction mixture was incubated at 30° C. for 30 min. […] The incorporation of ^33P into ATF2 was quantified on a microplate scintillation counter (Packard Topcount). Compound inhibition potency on JNK was measured by IC50 value generated from ten concentration inhibition curves fitted into the 3-parameter model: % inhibition=Maximum/(1+(IC50/[Inhibitor])^slope). Data were analyzed on Microsoft Excel for parameter estimation.

CC(C)(O)c1cccn2c(-c3ccnc(N[C@H]4CC[C@H](NS(C)(=O)=O)CC4)n3)cnc12 [Compound 3, N-(4-{4-[8-(1-Hydroxy-1-methyl-ethyl)-imidazo[1,2-a]pyridine-3-yl]-pyrimidin-2-ylamino}-cyclohexyl)-methanesulfonamide]
IC50: 123 nM
